From ChEMBL document CHEMBL1134315 (J Med Chem, 2001)

Chains of the proteins cited; added tags and fusions are not shown.
UniProt P20272, whole entry: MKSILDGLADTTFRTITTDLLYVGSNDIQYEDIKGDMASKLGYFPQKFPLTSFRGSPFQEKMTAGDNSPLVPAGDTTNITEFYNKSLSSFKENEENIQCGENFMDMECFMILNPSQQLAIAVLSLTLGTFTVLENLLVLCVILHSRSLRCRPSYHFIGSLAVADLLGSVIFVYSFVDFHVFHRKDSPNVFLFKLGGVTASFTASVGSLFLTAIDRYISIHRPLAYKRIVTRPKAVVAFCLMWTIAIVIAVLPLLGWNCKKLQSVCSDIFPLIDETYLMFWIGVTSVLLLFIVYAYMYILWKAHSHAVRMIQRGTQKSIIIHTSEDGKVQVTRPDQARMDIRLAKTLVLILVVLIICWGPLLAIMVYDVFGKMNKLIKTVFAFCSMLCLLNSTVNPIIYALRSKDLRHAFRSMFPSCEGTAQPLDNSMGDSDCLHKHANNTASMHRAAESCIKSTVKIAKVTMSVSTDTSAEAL

Target: Cannabinoid receptor 1 (Rattus norvegicus, UniProt P20272)
Assay: Binding affinity to CB1 cannabinoid receptor using [3H]WIN-55212-2 in rat cerebellum membranes
Assay type: cell membranes, Membrane

Molecule `CCCCC/C=C\C/C=C\C/C=C\C/C=C\CCCC(=O)NCCO` [ANANDAMIDE] has a Ki of 285 nM.
